Assay [1] concerns the target hVR1 receptors (Homo sapiens, UniProt Q8NER1). The assay is described as follows: [3H] RTX binding assay, human VR1. Particulars: read-out: hVR1 Ki; inhibition of [3H] RTX binding, membranes of HEK293 cells transfected with human VR1.
For assay [2], the target named is Rat VR1 (Rattus norvegicus, UniProt O35433). As to the kind of experiment: [3H]-RTX binding assay using rat tissue (spinal cord). Particulars: read-out: Rat VR1 Ki, rat spinal cord membranes.

Amino acid sequences for entries named in this document (tags omitted).
UniProt Q8NER1, whole entry: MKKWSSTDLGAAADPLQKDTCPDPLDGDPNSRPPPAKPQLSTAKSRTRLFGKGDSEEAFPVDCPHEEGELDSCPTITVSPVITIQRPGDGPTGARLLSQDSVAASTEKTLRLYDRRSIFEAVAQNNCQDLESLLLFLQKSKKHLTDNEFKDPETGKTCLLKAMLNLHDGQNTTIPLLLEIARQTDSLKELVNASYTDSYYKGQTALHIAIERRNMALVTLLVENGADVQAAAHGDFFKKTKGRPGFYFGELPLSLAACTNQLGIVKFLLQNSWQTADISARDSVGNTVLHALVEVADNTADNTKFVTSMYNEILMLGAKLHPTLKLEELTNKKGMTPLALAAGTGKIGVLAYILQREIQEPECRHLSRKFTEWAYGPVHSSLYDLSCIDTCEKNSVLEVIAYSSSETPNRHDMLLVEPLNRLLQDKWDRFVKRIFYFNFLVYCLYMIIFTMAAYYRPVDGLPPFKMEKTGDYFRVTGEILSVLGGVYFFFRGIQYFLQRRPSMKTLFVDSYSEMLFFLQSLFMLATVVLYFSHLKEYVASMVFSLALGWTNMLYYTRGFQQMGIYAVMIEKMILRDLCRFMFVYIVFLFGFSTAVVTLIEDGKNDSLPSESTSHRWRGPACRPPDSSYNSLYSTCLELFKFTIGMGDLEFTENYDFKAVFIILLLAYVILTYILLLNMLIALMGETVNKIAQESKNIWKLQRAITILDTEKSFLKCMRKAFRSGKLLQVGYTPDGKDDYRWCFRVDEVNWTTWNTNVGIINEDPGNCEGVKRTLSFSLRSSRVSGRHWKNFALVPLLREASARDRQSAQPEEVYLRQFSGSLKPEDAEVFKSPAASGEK
UniProt O35433, whole entry: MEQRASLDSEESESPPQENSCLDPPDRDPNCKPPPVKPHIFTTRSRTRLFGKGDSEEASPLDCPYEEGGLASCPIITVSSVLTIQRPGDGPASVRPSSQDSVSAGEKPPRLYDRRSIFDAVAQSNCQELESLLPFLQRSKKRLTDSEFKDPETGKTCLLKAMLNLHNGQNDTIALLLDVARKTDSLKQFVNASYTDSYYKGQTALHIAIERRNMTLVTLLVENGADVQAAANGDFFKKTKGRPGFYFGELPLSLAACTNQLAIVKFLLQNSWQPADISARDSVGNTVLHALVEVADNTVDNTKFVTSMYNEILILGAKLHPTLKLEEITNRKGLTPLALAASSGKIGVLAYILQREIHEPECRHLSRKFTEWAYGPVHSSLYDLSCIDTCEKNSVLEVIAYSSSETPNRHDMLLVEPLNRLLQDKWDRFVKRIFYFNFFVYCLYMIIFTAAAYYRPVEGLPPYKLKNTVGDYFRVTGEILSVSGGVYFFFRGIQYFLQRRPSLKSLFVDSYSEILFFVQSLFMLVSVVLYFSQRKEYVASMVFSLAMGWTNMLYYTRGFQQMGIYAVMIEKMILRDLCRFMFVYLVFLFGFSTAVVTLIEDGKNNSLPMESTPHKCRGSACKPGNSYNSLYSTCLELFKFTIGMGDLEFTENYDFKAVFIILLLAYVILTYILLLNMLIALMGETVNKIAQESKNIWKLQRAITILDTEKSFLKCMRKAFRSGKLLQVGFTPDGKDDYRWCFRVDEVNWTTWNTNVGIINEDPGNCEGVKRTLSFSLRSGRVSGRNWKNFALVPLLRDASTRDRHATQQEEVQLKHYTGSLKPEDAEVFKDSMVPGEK

As for `Cc1nccc2c(NC(=O)NC3CCc4cc(F)ccc4C3Cc3ccccc3)cccc12` (single isomer, unassigned) [80b], the Ki – broadly, the dissociation constant of the complex between target and ligand, obtained from inhibition or displacement – in assay [1] was determined as 25.1 nM. Turning to `O=C(Nc1cccc2cnccc12)NC1CCc2cc(F)ccc2C1Cc1ccccc1` (single isomer, unassigned) [94], the Ki in assay [1] is 0.719 nM; in assay [2], 131 nM.

For `O=C(Nc1cccc2cnccc12)NC1CCc2cc(F)ccc2C1Cc1ccccc1` (single isomer, unassigned) [93], the inhibition constant (Ki) in assay [1] amounted to 3.59 nM; in assay [2], 517 nM. Turning to `COc1ccc2c(c1)CCC(NC(=O)Nc1cccc3cnccc13)C2Cc1ccccc1` (single isomer, unassigned) [92], the inhibition constant Ki in assay [2] came to 7080 nM. On the same count and under the same terms, next, `COc1ccc2c(c1)CCC(NC(=O)Nc1cccc3cnccc13)C2Cc1ccccc1` (single isomer, unassigned) [87]: 53.7 nM.

Regarding `Cc1nccc2c(NC(=O)NC3CCc4cc(F)ccc4C3Cc3ccccc3)cccc12` (single isomer, unassigned) [80a], in assay [1], the Ki came out at 5.32 nM. In the case of `O=C(Nc1cccc2cnccc12)NC1CCc2cc(F)ccc2C1Cc1ccccc1` (single isomer, unassigned) [38c], in assay [1], the inhibition constant Ki came out at 3.59 nM. Consider `O=C(Nc1cccc2c[n+]([O-])ccc12)NC1CCc2cc(F)ccc2C1Cc1ccccc1` (single isomer, unassigned) [85b], for which the Ki in assay [1] is 50.2 nM. On the same count and under the same terms, the result for `Cc1nccc2c(NC(=O)NC3CCc4cc(F)ccc4C3Cc3ccccc3)cccc12` (single isomer, unassigned) [102] reads 25.1 nM; that for `O=C(Nc1cccc2cnccc12)NC1CCc2cc(F)ccc2C1Cc1ccccc1` (single isomer, unassigned) [38b], 0.72 nM. For the compound `Cc1nccc2c(NC(=O)NC3CCc4cc(F)ccc4C3Cc3ccccc3)cccc12` (single isomer, unassigned) [103], the inhibitory constant (Ki) in assay [1] stood at 5.32 nM; in assay [2], 101 nM. As to `C=CCC1c2ccc(OC)cc2CCC1NC(=O)Nc1cccc2cnccc12` (stereo not shown), the Ki in assay [1] came to 21.3 nM. On the same count and under the same terms, the result for `O=C(Nc1cccc2c[n+]([O-])ccc12)NC1CCc2cc(F)ccc2C1Cc1ccccc1` (single isomer, unassigned) [96] reads 50.2 nM.

The values above are taken from patent US7678812B2, “Aminotetralin-derived urea modulators of vanilloid VR1 receptor” (Janssen Pharmaceutica NV, priority 2002, dated 2010).
